miR-21 reporter = miR-21 reporter, rising signal. 340,000 tested, under 10 active. Potency, µM (highest dose often 38.3 µM), for the others: at the highest dose reporter change, positive = more light. HeLa miR-21 FLuc reporter, luciferase, 48 h. AID 2288; active = well fitted rising curve with a large enough effect; inconclusive = small, poorly fitted or top-dose-only effect; inactive = no such curve, though single readings can be large or run the other way;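 further: % of control where 0% means no effect; miR-21 action dims this reporter so a rising signal means less miR-21 action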
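Luminescence from a firefly luciferase reporter carrying a miR-21 binding site downstream, stably expressed under a CMV promoter in HeLa cells that make miR-21 endogenously, reports miRNA modulation after 48 h compound exposure up to approximately 40uM final.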
KDM4E inh = blocks human JMJD2E demethylase activity; AID 2147; B2RXH2; 230,000 compounds, 1.6% hits; JMJD2E catalytic domain, FDH-coupled NADH fluorescence (FDH is formaldehyde dehydrogenase); Potency, µM (titrated, usually from 57.1 µM), for the others: at the top dose activity change, negative = inhibition, most hits filed as inhibitors; active = well fitted inhibition curve with a large enough effect, not every such curve was filed as active; inconclusive = small, poorly fitted or top-dose-only effect, or another doubt; inactive = no such curve, though single readings can be large or run the other way;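 note: potency is the fitted concentration of half-maximal effect; 0% = wells with enzyme and -100% = buffer wells without enzyme; nearly all actives have a fitted effect of over 50% in size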
G9a block = G9a (human) methyltransferase inhibition. Potency, µM (titrated, usually from 102 µM), without a hit: at the top dose activity, negative = inhibition, usual class: inhibitors. AID 504332. G9a H3K9 monomethylation, AlphaScreen, 2 h. Q96KQ7. 350,000 compounds, 8.8% hits; note: potency is the fitted concentration of half-maximal effect; % is set by controls: 0 for no effect and ±100 for the full control effect; nearly all actives have a fitted effect of over 75% in size
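Quantitative HTS format: methyltransferase activity on a biotin-tagged H3K9 peptide is measured by AlphaScreen, using a rabbit anti-monomethyl-H3K9 antibody with streptavidin donor and anti-IgG acceptor beads. Final levels are 20 nM enzyme, 500 nM peptide, 20 uM SAM; 2 h RT.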
Sfp inh = inhibitors of Bacillus subtilis Sfp phosphopantetheinyl transferase. Biochemical Sfp PPTase activity, qHTS. 310,000 compounds, 3.5% hits. Q9F4F7. Potency, µM, for the others: max response, negative = inhibition, usual class: inhibitors; active = well fitted inhibition curve with a large enough effect; inconclusive = small, poorly fitted or top-dose-only effect, or another doubt; inactive = no such curve, though single readings can be large or run the other way;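 note: the enzyme is Sfp with the accession as filed and its product quenches rhodamine fluorescence; potency is the fitted concentration of half-maximal effect; 0% = enzyme reaction without inhibitor and -100% = no enzyme wells; top concentration of the series not given in the record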
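After 15 min at room temperature with compound, 15 nM Sfp received 5 uM rhodamine-CoA plus 12.5 uM BHQ-2-ybbR (50 mM Hepes pH 7.6, 10 mM MgCl2). Rate came from the fluorescence difference over 30 min, ex 525/em 598 nm.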
LMNA splice mod = modulators of lamin A splicing | 200,000 compounds, 0.01% hits | HeLa LMNA splicing GFP/RFP minigene ratio, 48 h | Potency, µM (series often up to 46.1 µM), without a hit: at the top dose ratio change, negative = inhibition, most hits filed as inhibitors; active = well fitted inhibition curve with a large enough effect in the signal ratio, with a control signal flat, not every such curve was filed as active; inconclusive = small, poorly fitted or top-dose-only effect, or effect the other way, or a change in a side signal; the % refers to the signal ratio; note: potency is the fitted concentration of half-maximal effect; % is set by controls: 0 for no effect and ±100 for the full control effect
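S3 HeLa stable clones carrying a lamin A-EGFP splicing minigene plus DsRed2 were seeded at 600 cells/well in Opti-MEM with 2% FBS, pin-dosed and incubated 48 h at 37°C. Acumen cytometry (488 nm) gave the GFP/RFP total-intensity ratio.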
ALDH1A1 inh = ALDH1A1 (human) enzyme inhibition. P00352. Purified ALDH1A1, NADH fluorescence, propionaldehyde substrate. Potency, µM (titrated, usually from 75.3 µM), without a hit: at the top dose activity, negative = inhibition, usual class: inhibitors. 220,000 compounds, 7.3% hits. AID 1030; active = well fitted inhibition curve with a large enough effect, not every such curve was filed as active; inconclusive = small, poorly fitted or top-dose-only effect, or another doubt; inactive = no such curve, though single readings can be large or run the other way;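 note: potency is the fitted concentration of half-maximal effect; plate controls were no enzyme wells and a reference inhibitor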
Starred values were filed as active, the others as inactive; ? = inconclusive; . = no result; ! = not confirmed by another sample; [ ] = remark or other dose. In the library only some 13% were active in any assay of this set; here they are far more common. Unless noted, calls come from the whole dose curve; as a rule, active = well fitted curve in the direction sought with a large enough effect; inconclusive = small, poorly fitted or top-dose-only effect, or another doubt; inactive = no such curve, though single readings can be large; an effect the other way counts as inactive or inconclusive.

#1 O=C1NC(c2cccs2)Nc2sc3c(c21)CCCC3 (stereo not given)
#2 Cc1ccc2[nH]c(CSc3nnc(NC(=O)c4ccc(Cl)cc4)s3)cc(=O)c2c1
#3 Clc1ccc2c(c1)-c1[nH]ncc1CS2
#4 Cc1ccc(NC(=O)CCC(=O)NNC(=O)c2ccccc2[N+](=O)[O-])c(C)c1
#5 Cc1ccnc(NC(=O)c2ccccc2[N+](=O)[O-])c1
#6 Cc1ccc(NC(=O)CCC(=O)NNC(=O)c2cccs2)c(C)c1
#7 COc1cccc(CNC(=O)C(=O)NCC2OCCCN2S(=O)(=O)c2cc(C)ccc2C)c1 (stereo not given)
#8 CCOC(=O)CSc1nc(C2CC2)nc2ccccc12

| assay / compound | 1 | 2 | 3 | 4 | 5 | 6 | 7 | 8 |
| --- | --- | --- | --- | --- | --- | --- | --- | --- |
| Sfp inh | 45µM* | . | -6% | 11% | 22µM* | 8% | 7% | 89µM* |
| miR-21 reporter | -39% | -11% | -15% | 2% | -20% | -3% | 9% | 2% |
| ALDH1A1 inh | ? | . | . | 11% | ? | 9% | . | -5% |
| KDM4E inh | ? | . | 3% | 10% | 3% | -6% | . | ? |
| LMNA splice mod | -1% | -9%[46 µM] | . | . | 12% | -2% | . | 1% |
| G9a block | ? | -2%[59 µM] | ? | 50µM* | 10µM* | 23%[59 µM] | 4% | 11%[12.7 µM] |

#9 CC1CCN(C(=O)CSc2nc(C3CC3)nc3ccccc23)CC1
#10 O=C1/C(=C/c2ccc(F)cc2)SC(=S)N1CC(=O)N1CCCCC1c1cccnc1 (stereo not given)
#11 O=C1/C(=C/c2ccccc2F)SC(=S)N1CC(=O)N1CCCCC1c1cccnc1 (stereo not given)
#12 O=C(/C=C/c1ccc(F)cc1)NC(=S)N1CCCCC1c1cccnc1 (stereo not given)
#13 CC(NC(=O)CNC(=O)c1ccccc1F)c1ccc(-n2ccnc2)cc1 (stereo not given)
#14 CCCCc1nnc(SCc2cc(=O)c3cc(F)ccc3[nH]2)n1C
#15 NC(C(=O)O)C(O)c1ccc(O)c(O)c1 (stereo not given)
#16 N[C@H](C(=O)O)c1ccc(O)c(C(=O)O)c1

| assay / compound | 9 | 10 | 11 | 12 | 13 | 14 | 15 | 16 |
| --- | --- | --- | --- | --- | --- | --- | --- | --- |
| Sfp inh | 3% | ? | -20% | 50µM* | . | . | 45µM* | 20µM* |
| miR-21 reporter | 4% | 4% | 5% | -11% | . | 5% | . | . |
| ALDH1A1 inh | . | . | . | . | . | . | . | ? |
| KDM4E inh | . | . | . | 4% | . | . | . | ? |
| LMNA splice mod | . | . | . | -13%[46 µM] | . | 7%[46 µM] | ? | . |
| G9a block | ? | 40µM* | 5µM* | ? | -6%[12.7 µM] | 8%[59 µM] | 1.1µM* | 34%[59 µM] |

#17 NC(C(=O)O)c1ccc(O)cc1 (stereo not given)
#18 N[C@H](C(=O)O)c1cccc(O)c1
#19 COc1ccc(N(CC(=O)NCc2ccc(C)cc2)S(=O)(=O)c2c(C)nn(C)c2C)cc1
#20 COc1ccc(CNC(=O)CN(c2ccc(OC)cc2)S(=O)(=O)c2c(C)nn(C)c2C)cc1
#21 COc1ccc(N(CC(=O)NCc2ccc3c(c2)OCO3)S(=O)(=O)c2c(C)nn(C)c2C)cc1
#22 COc1cc(OC)c(S(=O)(=O)Nc2ccc(C(=O)O)cc2)cc1S(=O)(=O)Nc1ccc(C(=O)O)cc1
#23 O=C(Nc1ncc(Cl)cc1Cl)c1c(F)cccc1Cl
#24 CCOC(=O)NN1C(=O)c2ccccc2NC1c1ccc(N(C)C)cc1 (stereo not given)

| assay / compound | 17 | 18 | 19 | 20 | 21 | 22 | 23 | 24 |
| --- | --- | --- | --- | --- | --- | --- | --- | --- |
| Sfp inh | 4% | 45µM*! | 19% | 0% | 1% | 16% | 7% | -12% |
| miR-21 reporter | . | . | -1% | -14% | 0% | -3% | -20% | -27% |
| ALDH1A1 inh | . | 14% | 25µM* | -7% | -3% | . | 1% | 18µM* |
| KDM4E inh | . | 22µM* | -3% | 4% | 1% | . | -7% | ? |
| LMNA splice mod | . | . | ? | ? | 1% | . | -2%[46 µM] | -14% |
| G9a block | -27%[12.7 µM] | 39%[59 µM] | 3% | -7% | 79µM* | -19% | 8% | -48% |

#25 CCOC(=O)NN1C(=O)c2ccccc2NC1c1ccccc1 (stereo not given)
#26 Cc1ccc(CC2SC(N)=NC2=O)cc1 (stereo not given)
#27 Cc1cccc(CC2SC(N)=NC2=O)c1 (stereo not given)
#28 Cc1ccc(CSCCNC(=O)/C=C/c2ccccc2Cl)cc1
#29 O=C(/C=C/c1ccccc1)NCCSCc1ccccc1Cl
#30 O=C(/C=C/c1ccc(Cl)cc1Cl)NCCSCc1ccccc1
#31 C=CCn1c(SCC(=O)Nc2ccc(N3CCOCC3)cc2)nc2ccccc2c1=O
#32 Cc1occc1-c1n[nH]c(=S)n1C

| assay / compound | 25 | 26 | 27 | 28 | 29 | 30 | 31 | 32 |
| --- | --- | --- | --- | --- | --- | --- | --- | --- |
| Sfp inh | -1% | -9% | -20% | 8% | 0% | 8% | 30% | 5% |
| miR-21 reporter | -9% | 0% | 3% | -7% | -15% | -3% | 0% | 5% |
| ALDH1A1 inh | ? | -3% | ? | 4.5µM* | 2.2µM* | -10% | . | 4% |
| KDM4E inh | ? | -8% | -1% | -7% | -8% | -11% | . | 9% |
| LMNA splice mod | -10% | . | . | ? | ? | ? | . | -20%[46 µM] |
| G9a block | -2% | 16% | 50µM* | 7%[59 µM] | 5%[59 µM] | 12%[59 µM] | 36% | 35µM* |

Arranged by count of non-hydrogen atoms (largest number first): part of the list above
#31 C=CCn1c(SCC(=O)Nc2ccc(N3CCOCC3)cc2)nc2ccccc2c1=O
#25 CCOC(=O)NN1C(=O)c2ccccc2NC1c1ccccc1 (stereo not given)
#29 O=C(/C=C/c1ccccc1)NCCSCc1ccccc1Cl
#26 Cc1ccc(CC2SC(N)=NC2=O)cc1 (stereo not given)
#32 Cc1occc1-c1n[nH]c(=S)n1C

| assay / compound | 31 | 25 | 29 | 26 | 32 |
| --- | --- | --- | --- | --- | --- |
| Sfp inh | 30% | -1% | 0% | -9% | 5% |
| miR-21 reporter | 0% | -9% | -15% | 0% | 5% |
| ALDH1A1 inh | . | ? | 2.2µM* | -3% | 4% |
| KDM4E inh | . | ? | -8% | -8% | 9% |
| LMNA splice mod | . | -10% | ? | . | -20%[46 µM] |
| G9a block | 36% | -2% | 5%[59 µM] | 16% | 35µM* |

(cont.)
#33 Cc1occc1-c1n[nH]c(=S)n1-c1ccccc1
#34 COc1cc2c(=O)c(C(=O)c3ccc(C)c(C)c3)cn(Cc3ccc(F)cc3)c2cc1OC
#35 O=C(CCCCn1c(=O)c2ccccc2n(Cc2ccccc2Cl)c1=O)NCc1ccc2c(c1)OCO2
#36 CCOC(=O)COc1ccc2ccccc2c1/C=C/[N+](=O)[O-]
#37 CCOC(=O)COc1ccc(/C=C/[N+](=O)[O-])c(OCC(=O)OCC)c1
#38 CCOc1ccc(/C=C/[N+](=O)[O-])c2ccccc12
#39 O=C(CSc1ncc(-c2ccccc2)[nH]1)Nc1cccc(Br)c1
#40 O=C(CSc1ncc(-c2ccc(F)cc2)[nH]1)N1CCCCC1

| assay / compound | 33 | 34 | 35 | 36 | 37 | 38 | 39 | 40 |
| --- | --- | --- | --- | --- | --- | --- | --- | --- |
| Sfp inh | 13% | . | . | 20µM* | -30% | 8.9µM* | . | 11% |
| miR-21 reporter | -6% | 2% | 2% | ? | ? | ? | -20% | -38% |
| ALDH1A1 inh | 2% | . | . | 13µM* | ? | 28µM* | . | -8% |
| KDM4E inh | 10% | . | . | -4% | 5% | -3% | . | -14% |
| LMNA splice mod | 8% | . | . | ? | ? | ? | . | -1% |
| G9a block | 5µM* | -39%[59 µM] | -5%[59 µM] | 18µM* | 71µM* | ? | 13µM* | 45µM* |

#41 O=C(CSc1ncc(-c2ccc(Cl)cc2)[nH]1)Nc1ccccc1F
#42 Cn1ccc2cc(S(=O)(=O)N3CCCN(C(=O)Nc4ccccc4Br)CC3)ccc21
#43 O=C(CN1CCCC1)NC(c1ccccc1)c1ccccc1
#44 Cc1ccc(NC(=O)CN2CCc3cc4c(cc3C2)OCCCO4)cc1
#45 Cc1cccc(NC(=O)CN2CCCCCC2)c1
#46 O=C(CN1CCN(c2ccccc2O)CC1)NC(c1ccccc1)c1ccccc1

| assay / compound | 41 | 42 | 43 | 44 | 45 | 46 |
| --- | --- | --- | --- | --- | --- | --- |
| Sfp inh | . | . | -15% | 7% | -23% | 4% |
| miR-21 reporter | 0% | 1% | 2% | -9% | -5% | -9% |
| ALDH1A1 inh | . | . | . | . | . | ? |
| KDM4E inh | . | . | . | . | . | 1% |
| LMNA splice mod | . | -15%[46 µM] | . | . | . | 0% |
| G9a block | 10µM* | -3%[59 µM] | 10µM* | 5% | 14µM* | 12%[59 µM] |
